Measurements from ChEMBL document CHEMBL2346663 (J Med Chem, 2013).

Species: Homo sapiens
Assay: Selectivity ratio of Ki for human SERT to IC50 for human recombinant MPO-mediated LDL oxidation
Procedure, shortened: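 Ratio of two measured values. Recombinant human MPO (1 µg/mL) oxidised LDL (1000 µg/mL) in PBS pH 7.2 with 4 mM HCl and 100 µM H2O2 at 37 °C for 5 min. Oxidised LDL was detected by ELISA with Mab AG9 at 405 nm to give the IC50. hSERT was transiently expressed in HEK-293 MSR cells and assayed by [3H]5-HT uptake.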

ONCCCc1c[nH]c2ccc(F)cc12
Ratio: 1.8
